Measured values as given in US7112654B2, “Ligand for vascular endothelial growth factor receptor” (Supratek Pharma Inc., priority 2001, dated 2006).

How the values were obtained:
[1] = test system: human umbilical vein endothelial cells (HUVEC); settings: 24 h
[2] = test system: B16BL6 melanoma-induced angiogenesis in C57BL/6 mice; assay: Tumor-induced angiogenesis, dorsal air sac-chamber; assay type: in vivo, mouse; settings: 20 mg/kg/day s.c., days 0 to 5, evaluated day 7
Procedure: For tumor-induced angiogenesis, the dorsal air sac-chamber was carried out in female C57BL/6 mice as described else (Itoh, T et al., Cancer Res., 58: 1048–1051, 1998). Murine B16BL6 cell, a VEGF-producing melanoma, were washed three times and suspended in HBSS at a concentration of 5×10^6 cells/ml. A Millipore (Millipore Co., Redford, Mass.) was filed with 0.2 ml of either a cell suspension of HBSS and then implanted s.c. into the dorsal side of mice (day 0). Control mice were implanted with Millipore chambre along. The animals (5 mice per group) were treated s.c. with 20 mg/kg of the modified peptide (SEQ ID NO: 4) or the vehicle into 1 cm around the air sac. Treatments were performed daily from days 0 to 5.
To evaluate the antiangiogenic activity of the compounds, 7 days after tumor implantation, the animals were sacrificed and a wide rectangular incision was made in the skin of air sacs and photgraphed. The significant stimulation of angiogenesis was detected in mice implanted with B16BL6 melanoma cells. The treatment of animals with compound of this invention at dose 20 mg/kg/day inhibits tumor-induced angiogenesis to 70%.

CC[C@H](C)[C@H](NC(=O)[C@H](CCC(=O)O)NC(=O)[C@H](Cc1ccc(O)cc1)NC(=O)CNC(=O)[C@H](CC(N)=O)NC(=O)c1ccc2c(c1)C(=O)OC21c2ccc(O)cc2Oc2cc(O)ccc21)C(=O)N[C@@H](CCC(=O)O)C(=O)N[C@@H](Cc1c[nH]c2ccccc12)C(=O)N[C@@H](Cc1ccc(O)cc1)C(=O)N[C@@H](CO)C(=O)N[C@@H](Cc1c[nH]c2ccccc12)C(=O)N[C@H](C(=O)N[C@H](C(=O)N[C@@H](Cc1c[nH]cn1)C(=O)NCC(=O)N[C@@H](CCSC)C(=O)N[C@@H](Cc1ccc(O)cc1)C(N)=O)[C@@H](C)O)C(C)C [SEQ ID NO: 4]
pIC50 [1]: 5.30
inhibition of tumor-induced angiogenesis [2]: 70%

pIC50: −log10 of the molar value.
